The source of these data is PMC5359770 (ACS chemical biology, 2016).

Chains of the proteins cited; added tags and fusions are not shown.
UniProt O95372, whole entry L78I/A85S/P86Q/H152R/R153A/A154S: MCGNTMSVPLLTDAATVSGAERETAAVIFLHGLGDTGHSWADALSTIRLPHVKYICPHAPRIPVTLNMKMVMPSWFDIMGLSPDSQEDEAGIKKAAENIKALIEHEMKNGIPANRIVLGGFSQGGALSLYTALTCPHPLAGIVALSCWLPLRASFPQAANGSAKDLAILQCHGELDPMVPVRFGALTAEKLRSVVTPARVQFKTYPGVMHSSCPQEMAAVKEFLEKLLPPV

For this experiment, the target named is APT2-L78I/A85S/P86Q/H152R/R153A/A154S (Homo sapiens, UniProt O95372, A154S/A85S/H152R/L78I/P86Q/R153A). The settings on record: ResOAc substrate.

pKi: −log10 of the molar value.

With ML348, the negative-log Ki (pKi) is 6.37.

A word on the pKi: it is the negative decadic logarithm of the Ki, by convention in mol/L.
